Assay results reported in patent US20240041813A1, “VERY-LONG-CHAIN POLYUNSATURATED FATTY ACIDS, ELOVANOID HYDROXYLATED DERIVATIVES, AND METHODS OF USE” (priority 2020, published 2024).

Test system: ACE2
Test: Cytokine screening for stimulation of Ace2 in HCEC (dd-PCR)
Format: cell-based, human
Settings: cytokine at 1, 10, and 100 ng/mL, 6 hours

IL2 was tested, and the “Ace2 expression (dd-PCR)” value was “no significant increase”.
